# From PubChem BioAssay AID485275 (NMMLSC, 2010)
# The entries are a selection whose mix differs from that of the whole data set. Calls of active or inactive are those of the source.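 How the source made its calls: active means plate passing quality check with inhibition over a set limit, or well fluorescence over plate mean plus 4 SD; inactive means the rest.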
# Test: inhibitors of Candida efflux pumps in yeast, primary screen, S. cerevisiae, Nile Red, multiplex (AID 485275);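 further: Nile Red retained in pooled yeast measured as flow cytometry median fluorescence; 0% = buffer negative control and 100% = Enniatin B positive control; higher means more Nile Red kept so more efflux inhibition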
# Conditions: S. cerevisiae Candida pump triplex, at 10 µM, hits give high values
row,SMILES,inhibition
1,CCC(=O)N(c1ccccc1)C1(COC)CCN(CCc2cccs2)CC1,inactive: 0.48%
2,CCC(=O)N(c1ccccc1)C1(COC)CCN(CCn2nnn(CC)c2=O)CC1,inactive: 0.09%
